Reference: PubChem BioAssay (EPA / NIEHS)
This is a selection; strong and weak results do not stand in their true shares. Inconclusive results are not listed. The source made the active and inactive calls. Rule for the calls: active = hit-call score of the fitted dose curve at least 0.9, where 1 is the maximum; inconclusive = response in the unintended direction; inactive = score below 0.9.

The chains behind the UniProt entries cited, without tags or fusion partners.
UniProt P19643, whole entry: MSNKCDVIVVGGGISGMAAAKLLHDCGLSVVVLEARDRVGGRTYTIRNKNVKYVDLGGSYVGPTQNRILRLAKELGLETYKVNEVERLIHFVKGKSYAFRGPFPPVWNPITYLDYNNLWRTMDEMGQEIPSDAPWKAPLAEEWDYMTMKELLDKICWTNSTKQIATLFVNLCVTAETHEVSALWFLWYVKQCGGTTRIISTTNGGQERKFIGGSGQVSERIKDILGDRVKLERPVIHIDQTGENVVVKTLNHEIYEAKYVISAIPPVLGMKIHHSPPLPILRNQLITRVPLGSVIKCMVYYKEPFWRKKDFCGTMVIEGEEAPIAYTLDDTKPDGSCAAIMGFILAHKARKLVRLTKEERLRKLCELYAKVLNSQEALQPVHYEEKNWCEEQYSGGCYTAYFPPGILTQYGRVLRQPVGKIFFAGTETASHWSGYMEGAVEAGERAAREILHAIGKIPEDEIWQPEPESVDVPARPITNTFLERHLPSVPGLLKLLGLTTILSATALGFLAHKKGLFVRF
UniProt P05979, whole entry: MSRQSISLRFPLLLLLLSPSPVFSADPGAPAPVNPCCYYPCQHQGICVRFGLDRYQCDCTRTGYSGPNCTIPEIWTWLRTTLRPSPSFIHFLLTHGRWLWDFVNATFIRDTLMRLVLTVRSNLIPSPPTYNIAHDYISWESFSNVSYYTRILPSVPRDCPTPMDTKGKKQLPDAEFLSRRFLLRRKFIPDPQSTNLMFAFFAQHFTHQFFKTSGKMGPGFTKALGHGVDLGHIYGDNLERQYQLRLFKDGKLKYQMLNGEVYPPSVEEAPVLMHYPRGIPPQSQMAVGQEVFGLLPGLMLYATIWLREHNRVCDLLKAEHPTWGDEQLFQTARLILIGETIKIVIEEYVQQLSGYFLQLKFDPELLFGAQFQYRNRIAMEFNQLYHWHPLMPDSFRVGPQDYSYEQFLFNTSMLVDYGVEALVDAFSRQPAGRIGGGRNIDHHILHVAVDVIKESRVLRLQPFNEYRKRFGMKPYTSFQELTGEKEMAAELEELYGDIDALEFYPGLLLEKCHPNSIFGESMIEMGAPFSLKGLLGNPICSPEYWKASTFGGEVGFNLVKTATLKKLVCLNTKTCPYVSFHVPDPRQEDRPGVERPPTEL
UniProt P22909, whole entry: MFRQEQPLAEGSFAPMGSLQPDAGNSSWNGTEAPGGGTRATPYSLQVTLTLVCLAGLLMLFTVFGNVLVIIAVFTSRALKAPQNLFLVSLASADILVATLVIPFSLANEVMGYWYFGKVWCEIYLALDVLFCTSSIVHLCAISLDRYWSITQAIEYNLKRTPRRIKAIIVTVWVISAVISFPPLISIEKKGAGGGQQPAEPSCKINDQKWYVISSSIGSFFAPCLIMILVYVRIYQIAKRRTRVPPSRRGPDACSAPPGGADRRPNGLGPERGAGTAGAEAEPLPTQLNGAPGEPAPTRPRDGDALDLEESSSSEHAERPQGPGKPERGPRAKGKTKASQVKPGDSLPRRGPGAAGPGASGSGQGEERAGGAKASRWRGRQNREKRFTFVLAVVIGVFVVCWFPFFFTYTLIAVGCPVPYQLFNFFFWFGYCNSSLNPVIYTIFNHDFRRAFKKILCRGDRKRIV
UniProt P13945, whole entry: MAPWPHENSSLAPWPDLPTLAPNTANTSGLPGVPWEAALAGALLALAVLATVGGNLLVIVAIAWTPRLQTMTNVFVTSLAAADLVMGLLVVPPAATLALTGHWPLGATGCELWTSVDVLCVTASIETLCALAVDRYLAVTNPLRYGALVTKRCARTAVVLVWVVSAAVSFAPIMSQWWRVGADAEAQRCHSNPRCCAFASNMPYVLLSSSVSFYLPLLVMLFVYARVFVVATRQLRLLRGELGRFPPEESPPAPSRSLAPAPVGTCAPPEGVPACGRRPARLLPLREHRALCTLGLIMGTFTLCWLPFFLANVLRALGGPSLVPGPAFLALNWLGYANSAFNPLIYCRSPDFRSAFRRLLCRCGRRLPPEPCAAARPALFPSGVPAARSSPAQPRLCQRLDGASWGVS
UniProt P08219, whole entry: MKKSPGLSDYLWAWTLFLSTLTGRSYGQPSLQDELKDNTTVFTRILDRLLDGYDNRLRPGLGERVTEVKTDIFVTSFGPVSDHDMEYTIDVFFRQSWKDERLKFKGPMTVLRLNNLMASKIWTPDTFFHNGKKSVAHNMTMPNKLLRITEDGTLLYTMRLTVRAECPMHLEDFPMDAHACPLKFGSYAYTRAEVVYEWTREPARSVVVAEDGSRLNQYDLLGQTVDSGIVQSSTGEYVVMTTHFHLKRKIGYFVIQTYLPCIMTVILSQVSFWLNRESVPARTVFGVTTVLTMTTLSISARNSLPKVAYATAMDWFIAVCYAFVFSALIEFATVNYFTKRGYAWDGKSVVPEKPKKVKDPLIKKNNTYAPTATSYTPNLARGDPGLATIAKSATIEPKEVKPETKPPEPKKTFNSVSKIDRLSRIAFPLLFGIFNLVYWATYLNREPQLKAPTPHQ
UniProt P16257, whole entry: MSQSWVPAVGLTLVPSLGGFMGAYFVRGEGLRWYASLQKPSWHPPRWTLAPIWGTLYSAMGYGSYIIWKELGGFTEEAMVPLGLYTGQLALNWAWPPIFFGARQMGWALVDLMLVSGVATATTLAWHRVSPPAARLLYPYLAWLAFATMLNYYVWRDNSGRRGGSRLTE
UniProt Q02763, whole entry: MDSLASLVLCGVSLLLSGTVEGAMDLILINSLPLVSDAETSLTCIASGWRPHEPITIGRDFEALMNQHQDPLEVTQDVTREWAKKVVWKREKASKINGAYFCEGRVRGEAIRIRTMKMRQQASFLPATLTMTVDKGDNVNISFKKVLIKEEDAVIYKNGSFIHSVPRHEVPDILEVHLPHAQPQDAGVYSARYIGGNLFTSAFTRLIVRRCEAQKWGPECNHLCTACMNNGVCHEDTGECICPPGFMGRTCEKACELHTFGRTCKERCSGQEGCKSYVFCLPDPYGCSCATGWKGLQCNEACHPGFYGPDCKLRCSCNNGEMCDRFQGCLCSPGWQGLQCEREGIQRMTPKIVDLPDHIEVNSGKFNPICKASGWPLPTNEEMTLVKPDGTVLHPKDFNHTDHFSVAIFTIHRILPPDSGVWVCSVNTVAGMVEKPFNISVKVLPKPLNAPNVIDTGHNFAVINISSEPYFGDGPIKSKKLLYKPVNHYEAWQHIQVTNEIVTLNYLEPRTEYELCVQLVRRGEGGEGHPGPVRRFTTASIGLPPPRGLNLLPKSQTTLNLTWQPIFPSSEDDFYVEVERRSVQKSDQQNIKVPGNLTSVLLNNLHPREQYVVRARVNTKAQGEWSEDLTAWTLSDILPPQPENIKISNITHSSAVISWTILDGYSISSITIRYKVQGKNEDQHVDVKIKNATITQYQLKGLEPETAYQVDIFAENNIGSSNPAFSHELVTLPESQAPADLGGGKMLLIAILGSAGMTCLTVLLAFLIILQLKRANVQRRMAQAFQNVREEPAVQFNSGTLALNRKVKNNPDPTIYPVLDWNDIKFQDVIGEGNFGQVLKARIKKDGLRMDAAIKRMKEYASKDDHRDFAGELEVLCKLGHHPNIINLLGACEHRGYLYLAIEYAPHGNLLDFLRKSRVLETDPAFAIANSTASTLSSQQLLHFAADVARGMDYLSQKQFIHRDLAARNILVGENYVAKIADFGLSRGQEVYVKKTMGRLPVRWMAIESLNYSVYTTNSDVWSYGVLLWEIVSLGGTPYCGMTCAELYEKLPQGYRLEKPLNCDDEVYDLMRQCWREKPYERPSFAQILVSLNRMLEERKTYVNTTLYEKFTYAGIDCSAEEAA
UniProt O97775, whole entry: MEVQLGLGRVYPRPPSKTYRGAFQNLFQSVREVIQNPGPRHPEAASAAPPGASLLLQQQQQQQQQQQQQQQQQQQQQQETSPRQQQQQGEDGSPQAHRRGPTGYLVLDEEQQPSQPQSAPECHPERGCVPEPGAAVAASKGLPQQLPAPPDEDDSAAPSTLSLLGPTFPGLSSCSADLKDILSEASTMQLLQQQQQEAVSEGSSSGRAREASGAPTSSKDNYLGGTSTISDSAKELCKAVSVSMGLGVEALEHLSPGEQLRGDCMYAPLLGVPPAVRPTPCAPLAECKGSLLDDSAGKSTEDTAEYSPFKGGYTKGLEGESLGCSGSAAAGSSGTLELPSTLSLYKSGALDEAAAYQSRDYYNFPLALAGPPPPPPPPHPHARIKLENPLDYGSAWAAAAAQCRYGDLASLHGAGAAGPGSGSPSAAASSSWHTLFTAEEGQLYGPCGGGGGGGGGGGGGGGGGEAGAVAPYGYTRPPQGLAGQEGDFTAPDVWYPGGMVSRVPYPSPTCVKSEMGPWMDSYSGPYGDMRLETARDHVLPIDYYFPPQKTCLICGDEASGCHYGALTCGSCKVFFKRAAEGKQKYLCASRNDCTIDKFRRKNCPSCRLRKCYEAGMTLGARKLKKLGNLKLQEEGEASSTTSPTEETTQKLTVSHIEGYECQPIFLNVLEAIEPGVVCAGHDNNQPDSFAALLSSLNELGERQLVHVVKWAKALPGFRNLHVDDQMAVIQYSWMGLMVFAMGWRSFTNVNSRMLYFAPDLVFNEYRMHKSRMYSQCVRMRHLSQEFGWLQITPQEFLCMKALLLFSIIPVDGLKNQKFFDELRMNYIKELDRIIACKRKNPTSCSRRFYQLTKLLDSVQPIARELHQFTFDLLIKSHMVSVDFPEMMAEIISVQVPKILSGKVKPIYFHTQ
UniProt P49884, whole entry: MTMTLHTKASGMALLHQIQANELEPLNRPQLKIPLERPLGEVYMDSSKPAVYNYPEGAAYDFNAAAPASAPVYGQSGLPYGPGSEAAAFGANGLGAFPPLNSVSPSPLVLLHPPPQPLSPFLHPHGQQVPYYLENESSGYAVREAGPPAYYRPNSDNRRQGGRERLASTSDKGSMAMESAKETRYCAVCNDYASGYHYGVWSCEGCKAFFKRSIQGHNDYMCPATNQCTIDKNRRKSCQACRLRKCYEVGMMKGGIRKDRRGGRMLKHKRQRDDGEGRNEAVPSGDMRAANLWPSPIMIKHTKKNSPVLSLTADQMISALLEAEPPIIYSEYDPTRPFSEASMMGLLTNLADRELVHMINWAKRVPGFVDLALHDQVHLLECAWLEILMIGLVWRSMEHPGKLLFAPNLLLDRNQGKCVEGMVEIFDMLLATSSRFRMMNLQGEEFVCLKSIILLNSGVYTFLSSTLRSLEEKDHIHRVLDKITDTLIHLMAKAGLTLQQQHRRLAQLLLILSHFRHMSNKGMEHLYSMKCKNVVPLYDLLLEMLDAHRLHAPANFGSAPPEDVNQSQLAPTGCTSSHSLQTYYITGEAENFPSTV
UniProt Q05941, whole entry: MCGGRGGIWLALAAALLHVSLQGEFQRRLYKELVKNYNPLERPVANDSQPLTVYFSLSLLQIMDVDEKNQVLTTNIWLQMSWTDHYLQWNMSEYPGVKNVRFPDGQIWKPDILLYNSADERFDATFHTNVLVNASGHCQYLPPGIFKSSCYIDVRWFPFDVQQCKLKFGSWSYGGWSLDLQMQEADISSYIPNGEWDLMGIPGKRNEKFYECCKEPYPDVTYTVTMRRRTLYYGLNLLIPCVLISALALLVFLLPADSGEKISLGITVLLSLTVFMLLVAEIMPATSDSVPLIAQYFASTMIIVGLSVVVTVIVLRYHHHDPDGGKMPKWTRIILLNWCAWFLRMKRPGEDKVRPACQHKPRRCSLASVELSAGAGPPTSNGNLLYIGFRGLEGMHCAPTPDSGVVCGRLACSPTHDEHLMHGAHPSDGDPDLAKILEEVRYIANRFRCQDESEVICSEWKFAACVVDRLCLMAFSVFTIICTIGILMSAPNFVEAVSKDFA
UniProt P35353, whole entry: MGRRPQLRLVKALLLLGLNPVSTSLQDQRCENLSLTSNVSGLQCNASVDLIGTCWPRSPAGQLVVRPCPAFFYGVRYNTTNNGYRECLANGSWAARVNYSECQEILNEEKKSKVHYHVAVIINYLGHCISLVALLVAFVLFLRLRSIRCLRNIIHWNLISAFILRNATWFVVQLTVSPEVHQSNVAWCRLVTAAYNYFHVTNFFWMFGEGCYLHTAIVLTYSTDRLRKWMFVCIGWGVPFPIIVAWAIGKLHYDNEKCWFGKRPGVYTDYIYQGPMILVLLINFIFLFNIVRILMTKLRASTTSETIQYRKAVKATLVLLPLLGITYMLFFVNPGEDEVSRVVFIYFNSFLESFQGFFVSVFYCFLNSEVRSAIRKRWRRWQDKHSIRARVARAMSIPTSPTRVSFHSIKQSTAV
UniProt P70536, whole entry: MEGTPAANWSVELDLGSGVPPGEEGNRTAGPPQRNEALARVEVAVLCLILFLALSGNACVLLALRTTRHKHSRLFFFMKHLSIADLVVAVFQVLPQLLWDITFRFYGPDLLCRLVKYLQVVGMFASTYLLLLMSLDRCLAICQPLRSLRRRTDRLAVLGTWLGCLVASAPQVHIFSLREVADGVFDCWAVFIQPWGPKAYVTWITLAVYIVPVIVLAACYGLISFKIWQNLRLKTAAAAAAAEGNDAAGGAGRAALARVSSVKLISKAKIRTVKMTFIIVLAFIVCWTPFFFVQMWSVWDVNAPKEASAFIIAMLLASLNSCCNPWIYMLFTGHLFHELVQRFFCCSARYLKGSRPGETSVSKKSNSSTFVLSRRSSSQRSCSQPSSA

How the values were obtained:
[1] = molecular target: rat Constitutive Nitric Oxide Synthase (CNOS), Nos1 (gene 24598) (UniProt P29476); experiment: NVS_ENZ_rCNOS: NovaScreen (NVS) Enzymatic Assay for rat Constitutive Nitric Oxide Synthase (CNOS) (AID 2283236)
Summary of the method: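 Enzyme activity in rat brain membrane preparation, read 1 h after dosing by filter-based radiometric scintillation counting. Primary screen in duplicate at 25 uM; actives (e.g., ≥30% inhibition) then run in concentration-response up to 50 uM.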

[2] = test system: rat Monoamine Oxidase, MAO-A, Peripheral (MAOAP), gene 29253; experiment: NVS_ENZ_rMAOAP: NovaScreen (NVS) Enzymatic Assay for rat Monoamine Oxidase, MAO-A, Peripheral (MAOAP) (AID 2283237)
Summary of the method: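 Rat liver mitochondrial membranes served as the MAO-A source, with enzyme activity measured by radiometric scintillation counting 1.17 hours after dosing. Loss of signal was fitted against DMSO; primary screen used 25 uM in duplicate, follow-up used concentration series.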

[3] = molecular target: rat Monoamine Oxidase, MAO-B, Central (MAOBC), Maob (gene 25750) (UniProt P19643); experiment: NVS_ENZ_rMAOBC: NovaScreen (NVS) Enzymatic Assay for rat Monoamine Oxidase, MAO-B, Central (MAOBC) (AID 2283238)
Summary of the method: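 MAO-B activity in rat brain tissue preparation, cell-free, measured radiometrically by scintillation counting 1.17 h after dosing. Screened in duplicate at 25 uM; actives then in concentration-response up to 50 uM. Loss of signal versus DMSO scored.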

[4] = molecular target: sheep Cyclooxygenase-1 (Cox1), PTGS1 (gene 443551) (UniProt P05979); experiment: NVS_ENZ_oCOX1: NovaScreen (NVS) Enzymatic Assay for sheep Cyclooxygenase-1 (Cox1) (AID 2283239);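 note: actives reduce cyclooxygenase activity so potencies are for inhibitors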
Summary of the method: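 Cell-free colorimetric assay of enzyme activity in a native extract of ovine seminal vesicles. Absorbance was read 0.66 hour after compound addition. Loss of signal relative to the DMSO negative control was scored, with actives from the 25 uM duplicate primary screen retested in concentration series.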

[5] = molecular target: rat Monoamine Oxidase, MAO-B, Peripheral (MAOBP), Maob (gene 25750) (UniProt P19643); experiment: NVS_ENZ_rMAOBP: NovaScreen (NVS) Enzymatic Assay for rat Monoamine Oxidase, MAO-B, Peripheral (MAOBP) (AID 2283242)
[6] = test system: rat Monoamine Oxidase, MAO-A, Central (MAOAC), gene 29253; experiment: NVS_ENZ_rMAOAC: NovaScreen (NVS) Enzymatic Assay for rat Monoamine Oxidase, MAO-A, Central (MAOAC) (AID 2283243);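 note: potency refers to inhibition seen as signal drop below DMSO baseline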
Summary of the method: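 Inhibition of rat brain-derived MAO-A was read by scintillation counting after 1.5 h exposure. Compounds screened first at 25 uM in duplicate, then in dose series if active.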

[7] = molecular target: rat Adrenergic Receptor, Alpha 2 (Adra2), Non-selective Binding, Adra2a (gene 25083) (UniProt P22909); experiment: NVS_GPCR_rAdra2_NonSelective: NovaScreen (NVS) G Protein-Coupled Receptor Assay for rat Adrenergic Receptor, Alpha 2 (Adra2), Non-selective Binding (AID 2283299)
Summary of the method: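 Rat cortical membranes, radioligand competitive displacement read by filter-based scintillation counting 1.25 hours after dosing. Primary screen in duplicate at 25 uM; actives followed up in concentration series.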

[8] = molecular target: human Adrenergic, Beta 3 Receptor (Adrb3), ADRB3 (gene 155) (UniProt P13945); experiment: NVS_GPCR_hAdrb3: NovaScreen (NVS) G Protein-Coupled Receptor Assay for human Adrenergic, Beta 3 Receptor (Adrb3) (AID 2283262)
Summary of the method: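 Membranes from SK-N-MC cells pretreated with isoproterenol and 8-bromo-cAMP were used in a radioligand competitive displacement binding assay. Binding was read by filter-based scintillation counting 1 hour after dosing. Primary screening was in duplicate at 25 uM, with concentration series in follow-up.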

[9] = molecular target: human Thromboxane A2 Receptor (TXA2), TBXA2R (gene 6915) (UniProt P21731); experiment: NVS_GPCR_hTXA2: NovaScreen (NVS) G Protein-Coupled Receptor Assay for human Thromboxane A2 Receptor (TXA2) (AID 2283282);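 note: actives reduce bound radioligand signal relative to DMSO baseline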
Summary of the method: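 Cell-free radioligand binding on membrane protein from human platelets; radioligand displacement read by filter-based scintillation counting after 1 h. Primary screen in duplicate at 25 uM, actives then run in concentration series; loss of signal versus DMSO.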

[10] = molecular target: bovine Gamma-Aminobutyric Acid Type A Receptor Agonist (GABAR Agonist), GABRA1 (gene 780973) (UniProt P08219); experiment: NVS_LGIC_bGABAR_Agonist: NovaScreen (NVS) Ligand-Gated Ion Channel Assay for bovine Gamma-Aminobutyric Acid Type A Receptor Agonist (GABAR Agonist) (AID 2283338)
Summary of the method: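 Radioligand binding to bovine cerebellar membranes in agonist format, read by filter-based scintillation counting after 1 h. Primary screen in duplicate at 25 uM, with actives followed in concentration series. Gain of signal versus DMSO.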

[11] = molecular target: rat Peripheral-type Benzodiazepine Receptor (PBR), Tspo (gene 24230) (UniProt P16257); experiment: NVS_MP_rPBR: NovaScreen (NVS) Membrane Protein Assay for rat Peripheral-type Benzodiazepine Receptor (PBR) (AID 2283335)
Summary of the method: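 Radioligand displacement, rat kidney membrane prep, 1 h exposure, filter-based scintillation read; DMSO baseline, loss-of-signal scored. Primary screen at 25 uM in duplicate, actives followed up in concentration series.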

[12] = molecular target: human Tyrosine Protein Kinase Receptor Tie-2 (Tie2), TEK (gene 7010) (UniProt Q02763); experiment: NVS_ENZ_hTie2: NovaScreen (NVS) Enzymatic Assay for human Tyrosine Protein Kinase Receptor Tie-2 (Tie2) (AID 2283225)
Summary of the method: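 Recombinant human Tie2 kinase activity was read cell-free by fluorescence with electrophoretic mobility shift, 1 hour after dosing. The screen used 25 uM in duplicate, then concentration-response up to 50 uM. Signal loss was scored against DMSO.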

[13] = test system: rat Adrenergic, Alpha 1B Receptor (Adra1B), gene 24173; experiment: NVS_GPCR_rAdra1B: NovaScreen (NVS) G Protein-Coupled Receptor Assay for rat Adrenergic, Alpha 1B Receptor (Adra1B) (AID 2283297)
Summary of the method: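 Rat liver membranes, radioligand displacement with filter-based scintillation detection, 1 h incubation. Primary screen in duplicate at 25 uM; actives retested in concentration series; activity relative to DMSO.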

[14] = molecular target: bovine Gamma-Aminobutyric Acid Type A Receptor BDZ, alpha 1 site (GABARa1), GABRA1 (gene 780973) (UniProt P08219); experiment: NVS_LGIC_bGABARa1: NovaScreen (NVS) Ligand-Gated Ion Channel Assay for bovine Gamma-Aminobutyric Acid Type A Receptor BDZ, alpha 1 site (GABARa1) (AID 2283321)
Summary of the method: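 Radioligand competition binding on bovine cortical membranes, 0.75 h, filter-based scintillation counting. Primary single concentration 25 uM in duplicate; actives rerun in concentration-response to 50 uM max. Loss of signal fitted versus DMSO.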

[15] = molecular target: chimpanzee Androgen Receptor (AR), AR (gene 747460) (UniProt O97775); experiment: NVS_NR_cAR: NovaScreen (NVS) Nuclear Receptor Binding Assay for chimpanzee Androgen Receptor (AR) (AID 2283346);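 note: radioligand displacement from AR measured by scintillation counting in a cell-free assay; a loss of bound radioligand signal versus DMSO counts as binding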
Summary of the method: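 Radioligand binding to chimpanzee AR expressed in Sf9/Sf21 cells, cell-free, measured 72 h after dosing by lysate-based scintillation counting. Loss of signal vs DMSO; initial duplicate screen at 25 uM, actives retested in concentration series.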

[16] = molecular target: bovine Estrogen Receptor (ER), ESR1 (gene 407238) (UniProt P49884); experiment: NVS_NR_bER: NovaScreen (NVS) Nuclear Receptor Binding Assay for bovine Estrogen Receptor (ER) (AID 2283345);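 note: actives lower the bound radioligand count which means they displace the ER ligand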
Summary of the method: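 Cell-free radioligand binding with receptor from bovine uterine membranes, read by scintillation counting 18 h after dosing. Loss of specific binding was scored against DMSO; primary screen at 25 uM in duplicate, actives then run as concentration series.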

[17] = molecular target: rat Neonicotinoid receptor (NNR), Chrna7 (gene 25302) (UniProt Q05941); experiment: NVS_LGIC_rNNR_BungSens: NovaScreen (NVS) Ligand-Gated Ion Channel Assay for rat Neonicotinoid receptor (NNR) (AID 2283315)
Summary of the method: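 Radioligand displacement binding on rat cortical membranes, 2.5 h incubation, filtration and scintillation counting. Loss of specific binding fitted relative to DMSO.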

[18] = molecular target: Sodium channel protein type 1 subunit alpha (Rattus norvegicus) (UniProt P04774); experiment: NVS_IC_rNaCh_site2: NovaScreen (NVS) Ion Channel Assay for rat Sodium Channel, Site 2 (NaCh) (AID 2283322);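 note: hit means loss of radioligand binding signal relative to DMSO so AC50 marks displacement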
Summary of the method: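 Membranes: rat forebrain. Format: competitive radioligand displacement, filter separation, scintillation readout, 1 h exposure. Primary screen in duplicate at 25 uM; actives retested in concentration series.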

[19] = molecular target: rat Corticotropin Releasing Factor Receptor (CRF), Crhr1 (gene 58959) (UniProt P35353); experiment: NVS_GPCR_rCRF: NovaScreen (NVS) G Protein-Coupled Receptor Assay for rat Corticotropin Releasing Factor Receptor (CRF) (AID 2283300)
Summary of the method: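 Rat cortical membranes used as receptor source in a radioligand competitive displacement binding assay; scintillation read 2 h after dosing. Primary screen run in duplicate at 25 uM; loss of signal versus DMSO baseline indicates binding.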

[20] = molecular target: rat Oxytocin Receptor (OXT), Oxtr (gene 25342) (UniProt P70536); experiment: NVS_GPCR_rOXT: NovaScreen (NVS) G Protein-Coupled Receptor Assay for rat Oxytocin Receptor (OXT) (AID 2283330)
Summary of the method: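 Radioligand displacement on rat uterine membranes, 1 h incubation, filter-based scintillation counting. Chemicals were screened in duplicate at 25 uM, and those passing threshold were retested in concentration-response up to 50 uM. Loss of binding was fitted versus DMSO.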

For O=[N+]([O-])c1cccc([N+](=O)[O-])c1, the AC50 [1] was active: 1.97 µM, the AC50 [2] was active: 11.5 µM and the AC50 [3] was active: 1.24 µM. The outcome [4] was “inactive”, the AC50 [5] was active: 15.7 µM and the AC50 [6] was active: 5.05 µM.

In the case of COP(C)(=O)OC, the outcome [4] is reported as “inactive” and the outcome [7] is reported as “inactive”.

CC(C)OP(C)(=O)OC(C)C was tested, and the AC50 [8] was active: 18.8 µM, the AC50 [9] was active: 2.52 µM and the outcome [10] was “inactive”.

COc1ccc([N+](=O)[O-])cc1[N+](=O)[O-] was tested, and the outcome [4] was “inactive” and the AC50 [6] was active: 13.8 µM.

With Cc1ccc([N+](=O)[O-])c([N+](=O)[O-])c1 the AC50 [6] was active: 8.86 µM and the AC50 [11] was active: 16.9 µM.

In the case of Cc1cccc([N+](=O)[O-])c1[N+](=O)[O-], the outcome [12] is reported as “inactive”, the AC50 [2] is reported as active: 1.81 µM and the AC50 [3] is reported as active: 9.77 µM. The AC50 [6] was active: 0.572 µM, the outcome [13] was “inactive” and the outcome [14] was “inactive”. For the same molecule, the AC50 [15] was active: 11.6 µM.

With Cc1ccc([N+](=O)[O-])cc1[N+](=O)[O-] the outcome [12] was “inactive”, the AC50 [2] was active: 5.46 µM and the outcome [3] was “inactive”. For the same molecule, the AC50 [5] was active: 8.86 µM, the AC50 [6] was active: 4.95 µM and the outcome [14] was “inactive”.

O=[N+]([O-])OCC(CO[N+](=O)[O-])(CO[N+](=O)[O-])CO[N+](=O)[O-] was tested, and the outcome [16] was “inactive”.

For CN(C)CCCl, the outcome [17] was “inactive” and the outcome [18] was “inactive”.

Cc1c([N+](=O)[O-])cccc1[N+](=O)[O-] was tested, and the outcome [12] was “inactive”, the AC50 [2] was active: 29.6 µM and the AC50 [3] was active: 11.6 µM. For the same molecule, the AC50 [6] was active: 25 µM, the outcome [19] was “inactive” and the outcome [20] was “inactive”. For the same molecule, the outcome [15] was “inactive”.
